Measurements published in the Kinase Knowledgebase extract (Sharma et al. 2016).

Chains of the proteins cited; added tags and fusions are not shown.
UniProt Q16539, whole entry, looked up: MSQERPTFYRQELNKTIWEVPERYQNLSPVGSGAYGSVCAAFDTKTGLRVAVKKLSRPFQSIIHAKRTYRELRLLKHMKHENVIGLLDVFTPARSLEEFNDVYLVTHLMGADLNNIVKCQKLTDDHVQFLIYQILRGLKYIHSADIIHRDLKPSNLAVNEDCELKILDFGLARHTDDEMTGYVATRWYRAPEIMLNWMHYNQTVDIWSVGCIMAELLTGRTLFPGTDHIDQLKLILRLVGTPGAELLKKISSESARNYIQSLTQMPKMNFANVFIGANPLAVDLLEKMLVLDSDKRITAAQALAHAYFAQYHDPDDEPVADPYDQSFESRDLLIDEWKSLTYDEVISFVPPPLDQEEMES

Molecular target: MAPK14 (human) (UniProt Q16539)
Assay: Enzyme Assay

SMILES | Ki [nM] | Kd [nM]
CC(C)(C)c1cc(NC(=O)Nc2cccc3ccccc23)n(-c2cccc(C(=O)NCCc3ccc(N)cc3)c2)n1 | 1450 | –
CCN(CCOC)C(=O)c1cccc(-n2nc(C(C)(C)C)cc2NC(=O)Nc2cccc3ccccc23)c1 | 1390 | –
CC(C)(C)c1cc(NC(=O)Nc2cccc3ccccc23)n(-c2cccc(C(=O)NCc3ccncc3)c2)n1 | 176 | 10
CC(C)(C)c1cc(NC(=O)Nc2cccc3ccccc23)n(-c2cccc(C(=O)NCCc3c[nH]c4ccccc34)c2)n1 | 1400 | –
